Test results published in PubChem BioAssay (NCI).
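Tested at 5 concentrations; 48 h exposure; 96-well plates; endpoints linearly interpolated, else capped at highest concentration. At the GI50, growth is halved. TGI denotes the concentration required for complete inhibition of growth.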

Legend:
Assay in all cases: NCI anticancer screen, dose series, 48 h
HOP-92 NSCLC = tested on: HOP-92 NSCLC
MOLT-4 leukemia = tested on: MOLT-4 leukemia
HCT-116 colon = tested on: HCT-116 colon
PC-3 prostate = tested on: PC-3 prostate
EKVX NSCLC = tested on: EKVX NSCLC
IGROV1 ovarian = tested on: IGROV1 ovarian
A549 NSCLC = tested on: A549 NSCLC
U251 CNS = tested on: U251 CNS
HL-60(TB) leukemia = tested on: HL-60(TB) leukemia
NCI-H522 lung = tested on: NCI-H522 lung
SNB-75 CNS = tested on: SNB-75 CNS
RPMI-8226 leukemia = tested on: RPMI-8226 leukemia
COLO 205 colon = tested on: COLO 205 colon
NCI-H226 lung = tested on: NCI-H226 lung
RXF 393 renal = tested on: RXF 393 renal
SF-268 CNS = tested on: SF-268 CNS
SNB-19 CNS = tested on: SNB-19 CNS
ACHN renal = tested on: ACHN renal
K-562 leukemia = tested on: K-562 leukemia
OVCAR-4 ovarian = tested on: OVCAR-4 ovarian
MCF7 breast = tested on: MCF7 breast
CAKI-1 renal = tested on: CAKI-1 renal
M14 melanoma = tested on: M14 melanoma
SK-OV-3 ovarian = tested on: SK-OV-3 ovarian
SW-620 colon = tested on: SW-620 colon
NCI-H460 lung = tested on: NCI-H460 lung
SK-MEL-28 melanoma = tested on: SK-MEL-28 melanoma
HOP-62 NSCLC = tested on: HOP-62 NSCLC
HCC-2998 colon = tested on: HCC-2998 colon
T-47D breast = tested on: T-47D breast
SF-295 CNS = tested on: SF-295 CNS
HCT-15 colon = tested on: HCT-15 colon
UACC-62 melanoma = tested on: UACC-62 melanoma
CCRF-CEM leukemia = tested on: CCRF-CEM leukemia
NCI-H23 lung = tested on: NCI-H23 lung
OVCAR-8 ovarian = tested on: OVCAR-8 ovarian
MDA-MB-435 = tested on: MDA-MB-435
OVCAR-3 ovarian = tested on: OVCAR-3 ovarian
A498 renal = tested on: A498 renal
SK-MEL-5 melanoma = tested on: SK-MEL-5 melanoma
NCI-H322M lung = tested on: NCI-H322M lung
786-0 renal = tested on: 786-0 renal
HT29 colon = tested on: HT29 colon
KM12 colon = tested on: KM12 colon
UO-31 renal = tested on: UO-31 renal
OVCAR-5 ovarian = tested on: OVCAR-5 ovarian
HS 578T breast = tested on: HS 578T breast
NCI/ADR-RES ovarian = tested on: NCI/ADR-RES ovarian
BT-549 breast = tested on: BT-549 breast
UACC-257 melanoma = tested on: UACC-257 melanoma
SF-539 CNS = tested on: SF-539 CNS
TK-10 renal = tested on: TK-10 renal
MALME-3M melanoma = tested on: MALME-3M melanoma
DU-145 prostate = tested on: DU-145 prostate

**Q.** How did the GI50 (HOP-92 NSCLC) turn out when CC[As](CC)SCC(O)CO (configuration not stated) was run?
**A.** 0.606 µM

**Q.** What about the TGI (HOP-92 NSCLC) of the same compound?
**A.** 4.02 µM

**Q.** What about the GI50 (MOLT-4 leukemia) of the same compound?
**A.** 0.185 µM

**Q.** And the TGI (MOLT-4 leukemia)?
**A.** 6.61 µM

**Q.** What about the GI50 (HCT-116 colon) of the same compound?
**A.** 0.316 µM

**Q.** What about the TGI (HCT-116 colon) of the same compound?
**A.** 11.2 µM

**Q.** What about the GI50 (PC-3 prostate) of the same compound?
**A.** 0.377 µM

**Q.** And the TGI (PC-3 prostate)?
**A.** 9.96 µM

**Q.** What about the GI50 (EKVX NSCLC) of the same compound?
**A.** 0.97 µM

**Q.** And the TGI (EKVX NSCLC)?
**A.** 5.92 µM

**Q.** And the GI50 (IGROV1 ovarian)?
**A.** 0.578 µM

**Q.** What about the TGI (IGROV1 ovarian) of the same compound?
**A.** 21.4 µM

**Q.** And the GI50 (A549 NSCLC)?
**A.** 1.26 µM

**Q.** And the TGI (A549 NSCLC)?
**A.** 2.87 µM

**Q.** And the GI50 (U251 CNS)?
**A.** 0.518 µM

**Q.** What about the TGI (U251 CNS) of the same compound?
**A.** 2.03 µM

**Q.** What about the GI50 (HL-60(TB) leukemia) of the same compound?
**A.** 0.103 µM

**Q.** What about the TGI (HL-60(TB) leukemia) of the same compound?
**A.** 3.23 µM

**Q.** And the GI50 (NCI-H522 lung)?
**A.** 0.152 µM

**Q.** What about the TGI (NCI-H522 lung) of the same compound?
**A.** 1.31 µM

**Q.** What about the GI50 (SNB-75 CNS) of the same compound?
**A.** 2.92 µM

**Q.** And the TGI (SNB-75 CNS)?
**A.** > 100 µM

**Q.** What about the GI50 (RPMI-8226 leukemia) of the same compound?
**A.** 0.0932 µM

**Q.** What about the TGI (RPMI-8226 leukemia) of the same compound?
**A.** 0.394 µM

**Q.** And the GI50 (COLO 205 colon)?
**A.** 0.287 µM

**Q.** What about the TGI (COLO 205 colon) of the same compound?
**A.** 13.1 µM

**Q.** What about the TGI (NCI-H226 lung) of the same compound?
**A.** 1.92 µM

**Q.** And the GI50 (RXF 393 renal)?
**A.** 0.212 µM

**Q.** What about the TGI (RXF 393 renal) of the same compound?
**A.** 1.33 µM

**Q.** And the GI50 (SF-268 CNS)?
**A.** 0.549 µM

**Q.** What about the TGI (SF-268 CNS) of the same compound?
**A.** 3.58 µM

**Q.** What about the GI50 (SNB-19 CNS) of the same compound?
**A.** 2.58 µM

**Q.** What about the TGI (SNB-19 CNS) of the same compound?
**A.** 34.6 µM

**Q.** What about the GI50 (ACHN renal) of the same compound?
**A.** 0.356 µM

**Q.** What about the TGI (ACHN renal) of the same compound?
**A.** 1.43 µM

**Q.** What about the GI50 (K-562 leukemia) of the same compound?
**A.** 0.0635 µM

**Q.** What about the TGI (K-562 leukemia) of the same compound?
**A.** 3.46 µM

**Q.** And the GI50 (OVCAR-4 ovarian)?
**A.** 0.9 µM

**Q.** What about the TGI (OVCAR-4 ovarian) of the same compound?
**A.** 47.6 µM

**Q.** And the GI50 (MCF7 breast)?
**A.** 0.334 µM

**Q.** What about the TGI (MCF7 breast) of the same compound?
**A.** 9.51 µM

**Q.** And the GI50 (CAKI-1 renal)?
**A.** 0.633 µM

**Q.** And the TGI (CAKI-1 renal)?
**A.** 2.31 µM

**Q.** And the GI50 (M14 melanoma)?
**A.** 0.337 µM

**Q.** And the TGI (M14 melanoma)?
**A.** 8.99 µM

**Q.** What about the GI50 (SK-OV-3 ovarian) of the same compound?
**A.** 1.12 µM

**Q.** And the TGI (SK-OV-3 ovarian)?
**A.** 14.8 µM

**Q.** And the GI50 (SW-620 colon)?
**A.** 0.0566 µM

**Q.** What about the TGI (SW-620 colon) of the same compound?
**A.** 0.264 µM

**Q.** And the GI50 (NCI-H460 lung)?
**A.** 3.16 µM

**Q.** What about the TGI (NCI-H460 lung) of the same compound?
**A.** 25.2 µM

**Q.** What about the GI50 (SK-MEL-28 melanoma) of the same compound?
**A.** 0.45 µM

**Q.** What about the TGI (SK-MEL-28 melanoma) of the same compound?
**A.** 7.9 µM

**Q.** What about the GI50 (HOP-62 NSCLC) of the same compound?
**A.** 2.15 µM

**Q.** What about the TGI (HOP-62 NSCLC) of the same compound?
**A.** 6.57 µM

**Q.** What about the GI50 (HCC-2998 colon) of the same compound?
**A.** 0.985 µM

**Q.** What about the TGI (HCC-2998 colon) of the same compound?
**A.** 2.2 µM

**Q.** And the GI50 (T-47D breast)?
**A.** 5.65 µM

**Q.** And the TGI (T-47D breast)?
**A.** 43.6 µM

**Q.** And the GI50 (SF-295 CNS)?
**A.** 4.98 µM

**Q.** And the TGI (SF-295 CNS)?
**A.** 24.2 µM

**Q.** What about the GI50 (HCT-15 colon) of the same compound?
**A.** 0.0459 µM

**Q.** What about the TGI (HCT-15 colon) of the same compound?
**A.** 0.906 µM

**Q.** And the GI50 (UACC-62 melanoma)?
**A.** 0.213 µM

**Q.** And the TGI (UACC-62 melanoma)?
**A.** 6.2 µM

**Q.** What about the GI50 (CCRF-CEM leukemia) of the same compound?
**A.** 0.309 µM

**Q.** And the TGI (CCRF-CEM leukemia)?
**A.** > 100 µM

**Q.** And the GI50 (NCI-H23 lung)?
**A.** 0.112 µM

**Q.** And the TGI (NCI-H23 lung)?
**A.** 5.76 µM

**Q.** And the GI50 (OVCAR-8 ovarian)?
**A.** 0.416 µM

**Q.** And the TGI (OVCAR-8 ovarian)?
**A.** 2.41 µM

**Q.** And the GI50 (MDA-MB-435)?
**A.** 0.25 µM

**Q.** What about the TGI (MDA-MB-435) of the same compound?
**A.** 1.64 µM

**Q.** What about the GI50 (OVCAR-3 ovarian) of the same compound?
**A.** 0.118 µM

**Q.** What about the TGI (OVCAR-3 ovarian) of the same compound?
**A.** 11.1 µM

**Q.** And the GI50 (A498 renal)?
**A.** 1.76 µM

**Q.** What about the TGI (A498 renal) of the same compound?
**A.** 5.78 µM

**Q.** What about the GI50 (SK-MEL-5 melanoma) of the same compound?
**A.** 0.221 µM

**Q.** What about the TGI (SK-MEL-5 melanoma) of the same compound?
**A.** 0.602 µM

**Q.** What about the GI50 (NCI-H322M lung) of the same compound?
**A.** 3.48 µM

**Q.** What about the TGI (NCI-H322M lung) of the same compound?
**A.** 11.2 µM

**Q.** And the GI50 (786-0 renal)?
**A.** 0.401 µM

**Q.** And the TGI (786-0 renal)?
**A.** 1.82 µM

**Q.** And the GI50 (HT29 colon)?
**A.** 0.344 µM

**Q.** And the TGI (HT29 colon)?
**A.** 18.7 µM

**Q.** And the GI50 (KM12 colon)?
**A.** 1.33 µM

**Q.** And the TGI (KM12 colon)?
**A.** 7.46 µM

**Q.** What about the GI50 (UO-31 renal) of the same compound?
**A.** 0.516 µM

**Q.** What about the TGI (UO-31 renal) of the same compound?
**A.** 3.41 µM

**Q.** And the GI50 (OVCAR-5 ovarian)?
**A.** 1.69 µM

**Q.** What about the TGI (OVCAR-5 ovarian) of the same compound?
**A.** 4 µM

**Q.** What about the GI50 (HS 578T breast) of the same compound?
**A.** 0.33 µM

**Q.** What about the TGI (HS 578T breast) of the same compound?
**A.** 2.21 µM

**Q.** What about the GI50 (NCI/ADR-RES ovarian) of the same compound?
**A.** 0.489 µM

**Q.** And the TGI (NCI/ADR-RES ovarian)?
**A.** 7.72 µM

**Q.** And the GI50 (BT-549 breast)?
**A.** 0.559 µM

**Q.** And the TGI (BT-549 breast)?
**A.** 2.16 µM

**Q.** And the GI50 (UACC-257 melanoma)?
**A.** 0.621 µM

**Q.** And the TGI (UACC-257 melanoma)?
**A.** 2.43 µM

**Q.** And the GI50 (SF-539 CNS)?
**A.** 0.262 µM

**Q.** And the TGI (SF-539 CNS)?
**A.** 2.42 µM

**Q.** What about the GI50 (TK-10 renal) of the same compound?
**A.** 0.24 µM

**Q.** What about the TGI (TK-10 renal) of the same compound?
**A.** 1.12 µM

**Q.** And the GI50 (MALME-3M melanoma)?
**A.** 0.915 µM

**Q.** What about the TGI (MALME-3M melanoma) of the same compound?
**A.** 2.85 µM

**Q.** And the GI50 (DU-145 prostate)?
**A.** 0.195 µM

**Q.** What about the TGI (DU-145 prostate) of the same compound?
**A.** 1.81 µM
